Inhibition data for one compound are collected here from ChEMBL document CHEMBL3108672, “Structure-activity relationship of adenosine 5'-diphosphoribose at the transient receptor potential melastatin 2 (TRPM2) channel: rational design of antagonists” (J Med Chem, 2013).

Chains of the proteins cited; added tags and fusions are not shown.
UniProt O94759, whole entry: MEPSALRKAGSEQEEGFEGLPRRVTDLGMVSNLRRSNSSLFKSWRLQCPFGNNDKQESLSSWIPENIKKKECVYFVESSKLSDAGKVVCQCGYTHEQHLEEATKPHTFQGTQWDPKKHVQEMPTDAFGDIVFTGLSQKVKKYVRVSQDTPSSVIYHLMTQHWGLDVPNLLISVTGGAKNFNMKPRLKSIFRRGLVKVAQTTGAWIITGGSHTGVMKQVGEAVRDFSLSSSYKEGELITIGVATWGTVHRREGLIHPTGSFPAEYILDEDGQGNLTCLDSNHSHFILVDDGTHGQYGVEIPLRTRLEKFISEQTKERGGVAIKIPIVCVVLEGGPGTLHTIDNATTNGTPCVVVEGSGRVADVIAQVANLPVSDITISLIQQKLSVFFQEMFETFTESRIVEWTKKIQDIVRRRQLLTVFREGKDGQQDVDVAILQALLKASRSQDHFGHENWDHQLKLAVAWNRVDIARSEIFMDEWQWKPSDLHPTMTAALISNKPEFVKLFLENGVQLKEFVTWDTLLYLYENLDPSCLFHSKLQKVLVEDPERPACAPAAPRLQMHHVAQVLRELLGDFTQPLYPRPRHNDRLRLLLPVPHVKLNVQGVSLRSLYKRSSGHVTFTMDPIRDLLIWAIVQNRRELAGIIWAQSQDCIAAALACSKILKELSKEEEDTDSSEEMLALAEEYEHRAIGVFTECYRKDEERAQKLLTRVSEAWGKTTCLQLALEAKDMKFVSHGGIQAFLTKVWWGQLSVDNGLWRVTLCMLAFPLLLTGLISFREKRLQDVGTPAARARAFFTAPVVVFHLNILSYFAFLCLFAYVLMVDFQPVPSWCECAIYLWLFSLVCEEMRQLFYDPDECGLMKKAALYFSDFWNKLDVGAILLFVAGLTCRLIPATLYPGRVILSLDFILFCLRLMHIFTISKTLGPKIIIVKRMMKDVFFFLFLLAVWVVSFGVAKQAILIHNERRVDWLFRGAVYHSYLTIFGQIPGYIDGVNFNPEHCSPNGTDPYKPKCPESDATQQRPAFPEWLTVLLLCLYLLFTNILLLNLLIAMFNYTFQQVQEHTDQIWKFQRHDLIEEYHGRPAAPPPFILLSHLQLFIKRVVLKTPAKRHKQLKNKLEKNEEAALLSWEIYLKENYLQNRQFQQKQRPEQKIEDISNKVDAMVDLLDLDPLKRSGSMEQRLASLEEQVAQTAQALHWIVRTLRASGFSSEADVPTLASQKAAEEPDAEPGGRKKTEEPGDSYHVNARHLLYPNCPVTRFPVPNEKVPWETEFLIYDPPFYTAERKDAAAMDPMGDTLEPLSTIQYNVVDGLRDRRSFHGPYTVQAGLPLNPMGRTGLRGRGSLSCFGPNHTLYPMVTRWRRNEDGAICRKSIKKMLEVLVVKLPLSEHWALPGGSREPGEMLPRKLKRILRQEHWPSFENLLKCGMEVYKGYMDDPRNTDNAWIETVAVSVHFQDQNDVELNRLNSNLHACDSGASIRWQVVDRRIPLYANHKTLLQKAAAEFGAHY

For assay [1], the target named is T1, Transient receptor potential cation channel subfamily M member 2 (Homo sapiens, UniProt O94759). Nature of the assay: Antagonist activity at human TRPM2 expressed in HEK293 cells assessed as inhibition of ADPR-induced maximum outward potassium current at 900 uM at +15 mV by whole-cell patch-clamp electrophysiology. The assay is classed as cell-based. A digest of the protocol:
(§1)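 Stable clonal HEK293 line expressing human TRPM2 (with EGFP, G418-selected). Whole-cell patch clamp at room temperature; bath had 140 mM NMDG, 1 mM Ca2+, pH 7.4; KCl/EGTA pipet solution held 200 nM free Ca2+. Channel was activated by 100 μM ADPR in the pipet, and analogue was added to the same pipet solution. Read-out: maximum outward current at +15 mV from repeated ramps every 5 s over 450 s.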
(Patch clamp records ionic current or voltage across a cell membrane.)

In assay [2] the target is T1, Transient receptor potential cation channel subfamily M member 2. Nature of the assay: Antagonist activity at human TRPM2 expressed in HEK293 cells assessed as inhibition of ADPR-induced maximum outward potassium current at 100 uM at +15 mV by whole-cell patch-clamp electrophysiology. The assay is classed as cell-based. A digest of the protocol: as §1

The source made the active and inactive calls. No cut-off for these calls is given here.

For `Nc1ncnc2c1ncn2[C@@H]1O[C@H](COS(=O)(=O)NC(=O)c2ccccc2O)[C@@H](O)[C@H]1O`, the inhibition result in assay [1] and in assay [2] was “inactive” each time.
